The values that follow come from PubChem BioAssay AID651702 (NMMLSC, 2012).

Only a part is listed here, and it is no random draw. The source made the active and inactive calls.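 How the source made its calls: active means inhibition above about 55% (limit read from the data); inconclusive means no clear call, values can overlap the other calls; inactive means the rest.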

This assay in a line: LAMP-1 surface exposure blockers, TALL-104 cells – cell-based, flow cytometry, MLPCN library, primary screen (AID 651702). The conditions noted are these: TALL-104 LAMP-1 surface exposure, at 10 µM, stronger effect = higher value, cells stimulated with thapsigargin and PMA. In general terms: In flow cytometry, cells or beads pass a laser one at a time.
As for `CCCCn1nnnc1C(c1ccc(OC)cc1)N1CCC(n2c(=O)[nH]c3ccccc32)CC1` (configuration not stated), the inhibition – broadly, the change of the read-out against control, counted positive when it falls – was inactive: -3.3%.

For `CCOC(=O)N1CCC(Nc2ccc(OC)cc2)CC1`, the inhibition was inactive: -7.2%.

For the compound `COc1ccc(Cl)cc1C(=O)NCC1(N2CCOCC2)CCCCC1`, the inhibition is inactive: -0.7%.

Take `N#CC1(Nc2ccccc2)CCN(Cc2ccccc2)CC1`: the inhibition was inactive: -5.7%.

With `O=C(NCC1(N2CCCCC2)CCCCC1)c1ccc(Cl)s1`, the inhibition is inactive: -2.3%.

In the case of `O=C(OC1CN2CCC1CC2)C1c2ccccc2Oc2ccccc21` (configuration not stated), the inhibition was inactive: 5.5%.

Turning to `O=c1[nH]c2ccccc2n1C1CCN(C(c2cc3ccccc3o2)c2nnnn2C2CCCCC2)CC1` (configuration not stated), the inhibition is inactive: -7.1%.

For `CCOc1ccc(C)cc1CN(CCCl)CCCl`, the inhibition was inactive: -9.3%.

Consider `O=C1CCN(Cc2ccccc2)CC1`, for which the inhibition was inactive: 12.9%.

On to `CC(C)(C)n1nnnc1C(c1ccccc1)N1CCC(n2c(=O)[nH]c3ccccc32)CC1` (configuration not stated), for which the inhibition was inactive: -1.7%.

`COc1ccc(NC2CCN(CCc3ccccc3)CC2)c(OC)c1`: the inhibition is inactive: 5%.

With `CCOC(=O)N1CCC(Nc2ccc(F)cc2)CC1`, the inhibition was inactive: 0.5%.

Take `O=P1(N(CCCl)CCCl)SCCCS1`: the inhibition was inactive: 16.2%.

Consider `CCCCn1nnnc1C(c1cc2ccccc2o1)N1CCC(n2c(=O)[nH]c3ccccc32)CC1` (configuration not stated), for which the inhibition was inactive: 0.1%.

Consider `CCCCOc1ccc(C(=O)NCC2(N3CCOCC3)CCCCC2)cc1`, for which the inhibition was inactive: 3.3%.

For the compound `O=C(NCC1(N2CCCCC2)CCCCC1)c1ccc(F)cc1`, the inhibition was inactive: -2.1%.

Consider `O=c1[nH]c2ccccc2n1C1CCN(C(c2ccccc2)c2nnnn2C2CCCCC2)CC1` (configuration not stated), for which the inhibition is inactive: -3.3%.

Regarding `O=c1[nH]c2ccccc2n1C1CCN(C(c2cccc3ccccc23)c2nnnn2C2CCCC2)CC1` (configuration not stated), the inhibition is inactive: 8.9%.

As for `CCOC(=O)N1CCC(Nc2cccc(C)c2)CC1`, the inhibition is inactive: -5.3%.

Take `COc1cc(C(=O)NCC2(N(C)C)CCCCC2)ccc1OC(F)F`: the inhibition is inactive: 14.4%.

For the compound `O=C(NCC1(N2CCCCC2)CCCCC1)c1ccc(OC(F)F)cc1`, the inhibition is inactive: 5.9%.

For the compound `CC(C)(C)n1nnnc1C(c1ccccc1OC(F)(F)F)N1CCC(n2c(=O)[nH]c3ccccc32)CC1` (configuration not stated), the inhibition is inactive: -2.1%.

In the case of `CSc1ccc(C(=O)NCC2(N3CCOCC3)CCCCC2)cc1`, the inhibition was inactive: -1.6%.

For `O=C(NCC1(N2CCCCC2)CCCCC1)c1cccc([N+](=O)[O-])c1`, the inhibition was inactive: 1.6%.

Consider `O=c1[nH]c2ccccc2n1C1CCN(C(c2ccccc2OC(F)(F)F)c2nnnn2C2CCCC2)CC1` (configuration not stated), for which the inhibition is inactive: 10.9%.

As for `N#CC1(Nc2ccccc2)CCN(CCc2ccccc2)CC1`, the inhibition was inactive: -0.9%.

`CCN1CCC(Nc2ccc(Cl)cc2)CC1`: the inhibition was inactive: 4.9%.

In the case of `O=C(NCC1(N2CCCCC2)CCCCC1)c1cccc(C(F)(F)F)c1`, the inhibition was inactive: 0.1%.

As to `CN1CCN(CCOC(=O)C(O)(c2ccccc2)c2ccccc2)CC1`, the inhibition is inactive: 2.2%.

Regarding `COc1ccc(NC2CCN(C(=O)OC(C)(C)C)CC2)cc1`, the inhibition was inactive: 0.2%.

On to `CC(C)c1ccc(C(=O)NCC2(N3CCOCC3)CCCCC2)cc1`, for which the inhibition is inactive: -7.7%.

Consider `CCCCn1nnnc1C(c1cccc2ccccc12)N1CCC(n2c(=O)[nH]c3ccccc32)CC1` (configuration not stated), for which the inhibition is inactive: 6.9%.

For `COc1cc(C(=O)NCC2(N3CCCCC3)CCCCC2)ccc1OC(F)F`, the inhibition is inactive: -13.4%.

On to `O=C(NCC1(N2CCOCC2)CCCCC1)c1cc(=O)[nH]c2ccccc12`, for which the inhibition is inactive: 0.5%.

On to `CN(C)c1cccc(C(=O)NCC2(N3CCCCC3)CCCCC2)c1`, for which the inhibition is inactive: -0.3%.

Take `COc1ccc(CN(CCCl)CCCl)cc1Cl`: the inhibition is inactive: -0.8%.

For `CC(C)c1ccc(NC2CCN(C(=O)OC(C)(C)C)CC2)cc1`, the inhibition was inactive: -7.8%.

As to `CCCCn1nnnc1C(c1ccccc1OC(F)(F)F)N1CCC(n2c(=O)[nH]c3ccccc32)CC1` (configuration not stated), the inhibition was inactive: -6.7%.

With `CCCCn1nnnc1C(c1ccnc2ccccc12)N1CCC(n2c(=O)[nH]c3ccccc32)CC1` (configuration not stated), the inhibition is inactive: 4.3%.

For the compound `CCC(c1nnnn1C(C)(C)C)N1CCC(n2c(=O)[nH]c3ccccc32)CC1` (configuration not stated), the inhibition was inactive: 3.5%.

Consider `O=C(NCC1(N2CCOCC2)CCCCC1)c1cc(F)c(F)cc1Cl`, for which the inhibition was inactive: -1.8%.

On to `COc1cc(OC)c(C(=O)NCC2(N(C)C)CCCCC2)cc1OC`, for which the inhibition is inactive: 0%.

For the compound `CN1CCC(Nc2cccc(F)c2)CC1`, the inhibition was inactive: -2.4%.

On to `O=C(NCC1(N2CCCCC2)CCCCC1)c1cncc(Br)c1`, for which the inhibition was inactive: 5.1%.

Take `CCCOc1ccc(C(=O)NCC2(N(C)C)CCCCC2)cc1OC`: the inhibition was inactive: -6.3%.

In the case of `Cc1ccc(C(=O)NCC2(N(C)C)CCCCC2)o1`, the inhibition was inactive: 2.7%.

On to `COc1ccc(C(c2nnnn2C2CCCC2)N2CCC(n3c(=O)[nH]c4ccccc43)CC2)cc1` (configuration not stated), for which the inhibition was inactive: -0.8%.
